{"source": "patent US5166066A", "about": "(priority 1991, dated 1992)", "origin": "cited, not measured here", "system": "α1 - and β1 -subunits of the bovine brain GABAA receptor", "conditions": "CHO cells, dexamethasone-inducible promoter; cited from earlier work", "data": [{"molecule": "CCCC(C)C1(CC)C(=O)NC(=O)NC1=O", "note": "(stereo not shown) [pentobarbitone]", "values": [{"measurement": "effect on current response of α1β1 GABAA receptors", "result": "potentiated"}]}]}
